Measurements as given in patent publication US9745348B2 (The University of Manchester, priority 2011, dated 2017).

Test system: fibroblasts Adult (HDFa) cells
Assay: MTT viability of fibroblasts over three days
Assay type: cell-based, human
Conditions: surfactant 1%
Procedure: MTT assay: Cell viability and proliferation is widely assessed by the MTT assay as already described previously.
The fibroblasts cells, Neonatal (HDFn) and Adult (HDFa), were both grown until greater than 80% confluent. […] After 24 hour incubation the culture medium was replaced with fresh medium containing an appropriate amount of the peptide for investigation.
The viability of the fibroblasts, Adult (HDFa) and Neonatal (HDFn) cells in the presence of surfactants was tested by MTT assay over three days relative to control wells containing cells only.

cocamidopropyl aetaine [Tt]
MTT results (relative MTT reading) (Day 1): 0.01 | MTT results (relative MTT reading) (Day 2): 0.00 | MTT results (relative MTT reading) (Day 3): 0.00
